Test results taken from patent US20260258125A1.

Assays:
[1] = target: membrane-bound endogenous human CEACAM5 and CEACAM6 on BxPC3 cells; test: flow cytometry on BxPC3 cells with against without 100 nM soluble CEACAM5
[2] = target: membrane-bound endogenous human CEACAM5 and CEACAM6 on LS 174T cells; test: flow cytometry on LS174T cells with against without 100 nM soluble CEACAM5

- fold change of EC50 at the presence of 100 nM soluble protein [1]: 6.9 fold
- fold change of EC50 at the presence of 100 nM soluble protein [2]: 7.3 fold
Substance: PR303561 (Tusamitamab) (antibody)
